This note sets out measurements from US20220265606A1, “ANTICANCER AGENTS” (The Texas A&M University System, priority 2019, published 2022).

The subject of assay [1] is 15037, 14015s and U87-MG cells. The experiment in a line: Ki67 immunofluorescence. In kind it is cell-based, human. Particulars: 24 hours. As for the experimental part:
Immunofluorescence. […] Cells were then fixed with 37% formalin, blocked, treated with fluorescent Ki67 primary antibody for 24 hr. […] Finally, cells were observed using a Zeiss confocal fluorescence microscope.
Glioblastoma cells were treated with different concentrations of 4-Cl (FIG. 6A), 3-CF3-4-Cl (FIG. 6B), and 2-OH-4-Br (FIG. 6C) and effects on induction of Annexin V were determined as outlined herein. Glioblastoma cells were treated with different concentrations of NR4A2 antagonists and whole cell lysates were analyzed for markers of apoptosis by western blots.

Assay [2] concerns 15037 and 14015s cells. Put plainly: Scratch (migration) assay.
Assay [3] concerns 15037 and 14015s cells. Put plainly: Boyden chamber invasion assay. Particulars: 12.5 μM (3-CF3-4-Cl and 2-OH-4-Br) or 20 μM (C-DIM 12).

As for `Clc1ccc(C(c2c[nH]c3ccccc23)c2c[nH]c3ccccc23)cc1` [CDIM-4-Cl], the “Ki67 (proliferation marker) staining” value in assay [1] was “decreased Ki67”. In the assay on 15037 and 14015s cells [2] (20 μM), the “Migration, scratch assay” value was “minimal inhibition of migration”. The “Cell invasion, Boyden chamber” value in the assay on 15037 and 14015s cells [3] is “required higher concentrations”.

For `Oc1cc(Br)ccc1C(c1c[nH]c2ccccc12)c1c[nH]c2ccccc12` [Ligand 2-OH-4-Br], the “Migration, scratch assay” value with 15037 and 14015s cells [2] (12.5 μM) was “inhibited migration”.

As for `FC(F)(F)c1cc(C(c2c[nH]c3ccccc23)c2c[nH]c3ccccc23)ccc1Cl` [Ligand 3-CF3-4-Cl], the “Migration, scratch assay” value with 15037 and 14015s cells [2] (12.5 μM) is reported as “inhibited migration with the latter compound being the most potent inhibitor”.
